Experiments:
L1210 [1] = assay: Inhibition of mouse L1210 (murine leukemia) cell growth measured using a modification of the MTT36 colorimetric assay of Mosmann; assay type: functional, cell-based
CCRF-CEM = assay: Inhibition of human lymphoblastic leukemia (CCRF-CEM) cell growth measured using a modification of the MTT36 colorimetric assay of Mosmann; assay type: functional, cell-based
GC3/MTK- = assay: Inhibition of cellular growth in human adenocarcinoma cell line (GC3/M TK) deficient in thymidine kinase; assay type: functional, cell-based
L1210 [2] = assay: The ratio of IC50 of the inhibitor (assayed in L1210 cells) in presence and absence of thymidine; assay type: functional, Mus musculus
[3] = Partition coefficient (logP); assay type: physicochemical; conditions: octanol/water

| Compound | IC50 (L1210 [1]) | IC50 (CCRF-CEM) | Thymidine shift (L1210 [2]) | also measured |
| --- | --- | --- | --- | --- |
| Cc1nc(O)c2c(Sc3ccnc(C(F)(F)F)c3)c(C)ccc2n1 | 8.1 µM | 8.6 µM |  | IC50 (GC3/MTK-): 15 µM |
| Cc1nc(O)c2c(Sc3ccnnc3)c(C)ccc2n1 |  | 10.5 µM |  |  |
| Cc1cc(Sc2c(C)ccc3nc(C)nc(O)c23)ccn1 |  |  | >20 | logP [3]: 2.34 |
| Cc1nc(O)c2c(Sc3ccc(S(=O)(=O)c4ccccc4)cc3)c(C)ccc2n1 |  |  | 5.6 |  |

Second part, led by results:

| IC50 (L1210 [1]) | Compound | IC50 (CCRF-CEM) | Thymidine shift (L1210 [2]) | also measured |
| --- | --- | --- | --- | --- |
| 14 µM | Cc1nc(O)c2c(Sc3ccncc3)cccc2n1 |  |  |  |
| 3.1 µM | COc1cc(Sc2c(C)ccc3nc(C)nc(O)c23)ccn1 | 3.8 µM |  |  |

From ChEMBL document CHEMBL1126619, “Design of thymidylate synthase inhibitors using protein crystal structures: the synthesis and biological evaluation of a novel class of 5-substituted quinazolinones” (J Med Chem, 1993)
